# Results: patent publication US20260130896A1, “COMPOSITIONS AND METHODS FOR DELIVERY OF OPHTHALMOLOGICAL ACTIVES” (ADS Therapeutics LLC, priority 2023, published 2026)
# Test: Solubility of atropine in exemplary formulations
# Assay type: physicochemical
structure (smiles),measurement,setting,value
"CN1[C@@H]2CC[C@H]1C[C@@H](OC(=O)C(CO)c1ccccc1)C2 (some centres unmarked) [Atropine, atropine]",precipitation at 2-8° C.,"10% Captex 355/90% F6H8, 2-8° C.",There was no
same,precipitation at 2-8° C.,"100% Captex 300, 2-8° C.",There was no
